# This is a selection; strong and weak results do not stand in their true shares. Results filed as inconclusive are left out. Active and inactive are the calls of the source. Calls follow the shape of the dose curve; as a rule, active = well fitted cell-killing curve with a large enough effect; inconclusive = small, poorly fitted or top-dose-only effect, or effect the other way; inactive = no such curve, though single readings can be large or run the other way.
# Assay: Viability Counterscreen for Primary qHTS for Inhibitors of ATXN expression; also: nearly all actives have a fitted effect of over 40% in size
# Conditions: S2 cells (HEK-293 line with an ATXN2-luciferase reporter) viability, CellTiter-Fluor protease fluorescence, 24 h; series mostly up to 56.7 µM; activity change, negative = cytotoxicity: at the top concentration
# Potency is read from the fitted curve at half-maximal effect.
Structure (SMILES),"activity change, negative = cytotoxicity",Potency
c1nnnn1CCn1cnnn1,inactive: -29.4%,–
CC(C)C(=O)NC(Sc1ccccc1)C(Cl)(Cl)Cl (stereo unspecified),inactive: 16.4%,–
O=P(Nc1nccs1)(c1ccccc1)c1ccccc1,inactive: -33.9%,–
O=C(OC1CN2CCC1CC2)c1cccc(Cl)c1 (stereo unspecified),inactive: -22.5%,–
C(Cc1nn[nH]n1)Cc1nn[nH]n1,inactive: -14.4%,–
Nc1ccc([As](=O)(O)c2ccc([N+](=O)[O-])cc2)cc1,inactive: -7.06%,–
O=[As](O)(c1ccccc1)c1ccc(O)cc1,inactive: -10.1%,–
O=[N+]([O-])c1ncn(CCn2cnc([N+](=O)[O-])n2)n1,inactive: -17.4%,–
CC(=O)NC(SC(=S)N(C)C)C(Cl)(Cl)Cl (stereo unspecified),inactive: -14.1%,–
O=P(Nc1nc2ccccc2s1)(c1ccccc1)c1ccccc1,inactive: -12.8%,–
C[C@H]1OP(=O)(Oc2ccccc2)[C@H](O)[C@H](O)[C@H]1N=[N+]=[N-] (stereo partly specified),inactive: -7.82%,–
O=P(Nc1ccccn1)(c1ccc(Br)cc1)c1ccc(Br)cc1,inactive: -33.5%,–
CN(C)C1(CNC(=O)c2ccc(Cl)c(S(N)(=O)=O)c2)CCCCC1,inactive: -15.3%,–
COc1ccc(N)c([N+](=O)[O-])c1[N+](=O)[O-],inactive: -6.24%,–
CC(NC(=O)COC(=O)C(O)(c1ccccc1)c1ccccc1)c1ccccc1 (stereo unspecified),inactive: -22.5%,–
Cc1ccccc1OP(=O)(Nc1ccccn1)Oc1ccccc1C,inactive: -31.6%,–
O=c1c2cc([N+](=O)[O-])ccc2[nH]c2c([N+](=O)[O-])cc([N+](=O)[O-])cc12,–,active: 8.91 µM
CN(C)C(=O)Oc1noc2ccccc12,inactive: -24.6%,–
O=C(OC1CN2CCC1CC2)c1ccccc1 (stereo unspecified),inactive: -15%,–
CCC(=O)N1C2C3N(C(=O)CC)C1C1N(C(=O)CC)C(C(N1C(=O)CC)N3C(=O)CC)N2C(=O)CC,inactive: -14.1%,–
COC(=O)c1cc2c(s1)N=C(c1ccccc1)N(C)P2(=O)N1CCOCC1 (stereo unspecified),inactive: -23.3%,–
Cc1ccc(OP(=O)(Nc2ccccn2)Oc2ccc(C)cc2)cc1,inactive: 22.2%,–
CC(=O)NC(SC(=S)N(CC(C)C)CC(C)C)C(Cl)(Cl)Cl (stereo unspecified),inactive: -10.3%,–
c1ccc(-c2nn[nH]n2)c(-c2nn[nH]n2)c1,inactive: 19.9%,–
Cc1ccc(NP(=O)(Oc2cccc(C)c2)Oc2cccc(C)c2)nc1,inactive: -12.4%,–

Structure (SMILES),"activity change, negative = cytotoxicity",Potency
CCNC(=S)/N=C(\N)N[N+](=O)[O-],inactive: -8.18%,–
O=C(NC1CCS(=O)(=O)C1)NP(=S)(Oc1ccccc1)Oc1ccccc1 (stereo unspecified),inactive: 29.9%,–
CC(=O)Nc1ccc([As](=O)(O)O)c(O)c1,inactive: -13.4%,–
Cc1ccccc1CN(C)C(=O)COC(=O)C(O)(c1ccccc1)c1ccccc1,inactive: 26.9%,–
C[C@H]1OP(=O)(Oc2ccccc2)C[C@@H]2O[C@@H]21 (stereo partly specified),inactive: -13.2%,–
C[C@@H]1C=CCP(=O)(Oc2ccccc2)O1 (stereo partly specified),inactive: -26.7%,–
COC(=O)C1(C)COP(=O)(NCc2ccccc2)OC1 (stereo unspecified),inactive: -25.7%,–
CC(C)(C)C(=O)NC(Sc1ccccc1)C(Cl)(Cl)Cl (stereo unspecified),inactive: 25.3%,–
O=P1(Nc2nc3ccc(Cl)cc3s2)COc2ccccc2O1 (stereo unspecified),inactive: -35.6%,–
CCOc1ccc(C2=NCC(CBr)S2)cc1 (stereo unspecified),inactive: -17.3%,–
O=[N+]([O-])C1C(O)C(O)C([N+](=O)[O-])C(O)C1O (stereo unspecified),inactive: -23.8%,–
Oc1ccccc1CNc1ccccn1,inactive: -8.83%,–
O=C(NC(Sc1ccncn1)C(Cl)(Cl)Cl)c1ccccc1 (stereo unspecified),inactive: -3.01%,–
CC(C)CC(=O)NC(Sc1ccc(Cl)cc1)C(Cl)(Cl)Cl (stereo unspecified),inactive: 4.66%,–
CN1CCCC(OC(=O)C(c2ccccc2)c2ccccc2)C1 (stereo unspecified),inactive: -15.3%,–
CCNC(C)Cc1ccc2c(c1)OCO2 (stereo unspecified),inactive: 0.705% [at 126 µM],–
Clc1ccc(Cl)c(NC2=NCC(CBr)S2)c1 (stereo unspecified),inactive: 14.1%,–
COc1ccccc1OP(=O)(Nc1ccc(C)cn1)Oc1ccccc1OC,inactive: -9.75%,–
CN(C(=O)Cc1ccc(Cl)c(Cl)c1)[C@H]1CCCC[C@H]1N1CCCC1,inactive: -12.5%,–
Cc1ccc(N/C(=N/P(=O)(N2CCOCC2)N2CCOCC2)N2CCOCC2)cc1,inactive: -27.4%,–
NC(=O)c1cc([N+](=O)[O-])cc([N+](=O)[O-])c1N,inactive: -5.93%,–
Nc1cccc2ccc([As](=O)(O)O)cc12,inactive: -35.6%,–
CCN(N=Nc1nonc1N)c1nonc1N,inactive: -1.63%,–
Cc1cc(SC(NC(=O)c2ccc(F)cc2)C(Cl)(Cl)Cl)ncn1 (stereo unspecified),inactive: -32.1%,–
CCOP(=O)(Nc1ccccc1)OCC,inactive: -12.3%,–

Structure (SMILES),"activity change, negative = cytotoxicity",Potency
Cc1ccc(NP(=O)(Oc2ccccc2F)Oc2ccccc2F)nc1,inactive: -9.27%,–
CN(C(=O)Cc1ccc(Cl)c(Cl)c1)[C@H]1CCCC[C@@H]1N1CCCC1,inactive: -28.8%,–
O=P(Nc1nc2ccc(Cl)cc2s1)(c1ccccc1)c1ccccc1,inactive: -17.7%,–
CN(C)P(=O)(N(C)C)n1c(Nc2ccccc2)nnc1-c1ccccc1,inactive: -32.2%,–
CC(=O)Nc1ccc([As](=O)(O)O)cc1,inactive: -29.9%,–
O=C(O)c1ccccc1[As](=O)(O)O,inactive: -38.9%,–
CCCC1OP(N)(=O)OCC1CC (stereo unspecified),inactive: -0.879%,–
O=C(O)CNc1ccc([As](=O)(O)O)cc1,inactive: -29.5%,–
COC(=O)C1(C)COP(=O)(Nc2ccccc2)OC1 (stereo unspecified),inactive: -33.3%,–
O=[N+]([O-])c1cccc(NC2=NCC(CBr)S2)c1 (stereo unspecified),inactive: -25.1%,–
O=[N+]([O-])c1ncn(CCn2ncnc2[N+](=O)[O-])n1,inactive: -31.2%,–
CC(C)(C)C(=O)NC(Sc1ccncn1)C(Cl)(Cl)Cl (stereo unspecified),inactive: 4.1%,–
O=C(Nc1cc([As](=O)(O)O)ccc1O)c1ccccc1,inactive: -10.7%,–
O=P1(N(CCCl)CCCl)OCCCS1 (stereo unspecified),inactive: -11.6%,–
c1cc(-c2nn[nH]n2)ccc1-c1nn[nH]n1,inactive: -13.8%,–
CC(C)c1nc(Nc2ccccc2)n(P(=O)(N(C)C)N(C)C)n1,inactive: -41.7%,–
CC(C)=N/N=C(\N)N[N+](=O)[O-],inactive: -28.5%,–
CCN(/C(=N/P(=O)(N1CCOCC1)N1CCOCC1)N1CCOCC1)c1ccc(OC)cc1,inactive: 11.4%,–
Cc1ccc(NP(=O)(Oc2ccccc2)Oc2ccccc2)nc1,inactive: -9.73%,–
CCc1nc2c(n1)c1c(non1O)c1c2no[n+]1[O-],–,active: 15.8 µM
O=[N+]([O-])c1cccc2n[nH]nc12,inactive: -7.84%,–
CC(=O)N1C2C3N(C(C)=O)C1C1N(C(C)=O)C(C(N1C(C)=O)N3C(C)=O)N2C(C)=O,inactive: -32.2%,–
COc1ccc(C2=NCC(CBr)S2)cc1 (stereo unspecified),inactive: -35.3%,–
O=C(OC1CN2CCC1CC2)c1cccc([N+](=O)[O-])c1 (stereo unspecified),inactive: 37.8%,–
CSc1ccc(Nc2c([N+](=O)[O-])cc([N+](=O)[O-])cc2[N+](=O)[O-])cc1,–,active: 17.8 µM

Structure (SMILES),"activity change, negative = cytotoxicity",Potency
CCOC(=O)c1ccc(NC(=O)C(C)(CCl)SC)cc1 (stereo unspecified),inactive: -21.3%,–
O=C(COc1ccccc1)OC1CN2CCC1CC2 (stereo unspecified),inactive: -25.4%,–
O=C(Nc1ccncc1[N+](=O)[O-])c1ccc([N+](=O)[O-])cc1[N+](=O)[O-],inactive: -35.2%,–
COP1(=S)c2c(C)nn(CCC#N)c2N=C(c2ccc(F)cc2)N1C (stereo unspecified),inactive: -7.07%,–
COC(=O)C1(C)COP(=O)(N2CCCC2)OC1 (stereo unspecified),inactive: 6.5%,–
Cc1cc(SC(NC=O)C(Cl)(Cl)Cl)ncn1 (stereo unspecified),inactive: -2.65%,–
CCOC(=O)Nc1cccc([As](=O)(O)O)c1,inactive: 3.78%,–
COP(=O)(OC)N1CC1c1ccccc1 (stereo unspecified),inactive: 23.8%,–
CCCCOc1ccc(C(=O)NCC2(N3CCCCC3)CCCCC2)cc1OC,inactive: -18.5%,–
Cc1cc(SC(NC(=O)c2ccccc2)C(Cl)(Cl)Cl)nc(C(C)C)n1 (stereo unspecified),inactive: -2.68%,–
CCOC(=O)Nc1ccc([As](=O)(O)O)c(O)c1,inactive: -8.35%,–
O=C(O)C(O)c1ccc(N(CCCl)CCCl)cc1 (stereo unspecified),inactive: -23.5%,–
CC1CCNP(=O)(N(CCCl)CCCl)O1 (stereo unspecified),inactive: -23.2%,–
CC(C)NC(=O)NP(=O)(Oc1ccccc1)Oc1ccccc1,inactive: 3.58%,–
O=C(OC1CN2CCC1CC2)c1cccc2[nH]cnc12 (stereo unspecified),inactive: -18.7%,–
CCN(CC)C(=S)SC(NC=O)C(Cl)(Cl)Cl (stereo unspecified),inactive: -0.56%,–
ClCCSc1nnc(-c2cccnc2)o1,inactive: -36.4%,–
COC(=O)C1(C)COP(=O)(N2CCCCCC2)OC1 (stereo unspecified),inactive: -27%,–
CC(C)c1ccc(OP(=O)(Nc2ccccn2)Oc2ccccc2F)cc1 (stereo unspecified),inactive: -29.2%,–
[N-]=[N+]=NC1CCCCC1NC(=O)c1cc([N+](=O)[O-])cc([N+](=O)[O-])c1 (stereo unspecified),inactive: -26.2%,–
Cc1ccc(OP(=O)(Nc2ccc([N+](=O)[O-])cn2)Oc2ccc(C)cc2)cc1,inactive: -29.7%,–
Cc1ccc2nc3c(c(C)c2c1)CC(C(Cl)Cl)S3 (stereo unspecified),inactive: 18.9%,–
C[As](=O)(O)c1cccc(C(=O)O)c1,inactive: -28%,–
O=[As](O)(c1ccc(O)cc1)c1ccccc1O,inactive: -13%,–
O=[N+]([O-])c1ccc(-c2cc([N+](=O)[O-])c(O)c([N+](=O)[O-])c2)cc1,inactive: -17.9%,–

Structure (SMILES),"activity change, negative = cytotoxicity",Potency
COc1cc(C(=O)NCC2(N3CCOCC3)CCCCC2)ccc1OCC(C)C,inactive: 1.81%,–
O=[N+]([O-])c1cc(Oc2ccc([N+](=O)[O-])cc2C(F)(F)F)cc([N+](=O)[O-])c1,inactive: -38.7%,–
O=P1(N(CCCl)CCCl)OCCCN1CCCl (stereo unspecified),inactive: -30.5%,–
O=P1(N(CCCl)CCCl)Nc2ccccc2N1,inactive: -0.936%,–
COc1cc(I)ccc1[As](=O)(O)O,inactive: -23.4%,–
Cc1c2c(nc3ccccc13)SC(C(Cl)Cl)C2 (stereo unspecified),inactive: -27.9%,–
O=C(OC1CN2CCC1CC2)C12CC3CC(CC(C3)C1)C2 (stereo unspecified),inactive: -22.8%,–
Cc1cc(=O)[nH]c(N[N+](=O)[O-])n1,inactive: -14.4%,–
CCOP(=O)(Nc1cccc2ccccc12)OCC,inactive: 3.7%,–
Nc1cccc2c([As](=O)(O)O)cccc12,inactive: 11.8%,–
Cc1ccc(NCCc2c([N+](=O)[O-])cc([N+](=O)[O-])cc2[N+](=O)[O-])cc1,inactive: -23.5%,–
CCCOP(=S)(Nc1nc(N)cc(=O)[nH]1)OCCC,inactive: 16.1%,–
Cc1cccc(OCC(=O)OC2CN3CCC2CC3)c1 (stereo unspecified),inactive: -7.91%,–
O=C(OC1CN2CCC1CC2)c1ccc(Cl)cc1 (stereo unspecified),inactive: -32.7%,–
O=[As](O)(O)c1cccnc1,inactive: -15%,–
COc1cc(C(=O)NCC2(N3CCOCC3)CCCCC2)cc(Cl)c1OC(C)C,inactive: 26.1%,–
CS(=O)(=O)c1ccc(Cl)c(NC(=O)COC(=O)C(O)(c2ccccc2)c2ccccc2)c1,inactive: -35.8%,–
N#CCCN(C(=O)COC(=O)C(O)(c1ccccc1)c1ccccc1)c1ccc(F)cc1,inactive: 7.85%,–
CCOP1(=S)c2c(C)nn(CCC#N)c2N=C(c2ccc(F)cc2)N1C (stereo unspecified),inactive: -5.34%,–
O=[N+]([O-])c1ccc2c(c1)nnn2O,inactive: 0.0743%,–
CN(C)C(=O)c1cc([N+](=O)[O-])cc2c1-c1c(cc([N+](=O)[O-])cc1[N+](=O)[O-])C2=O,–,active: 31.6 µM

# Source: PubChem BioAssay AID651635 (National Center for Advancing Translational Sciences (NCATS), 2012)
